The results in this text go back to patent publication US20210115124A1 (Genentech, published 2021).

Chains of the proteins cited; added tags and fusions are not shown. A line that says so, or that is headed by a name, gives the form on record, which may keep a tag or linker.
UniProt P15692, other isoform, or with tags, fused parts or gaps limits assumed: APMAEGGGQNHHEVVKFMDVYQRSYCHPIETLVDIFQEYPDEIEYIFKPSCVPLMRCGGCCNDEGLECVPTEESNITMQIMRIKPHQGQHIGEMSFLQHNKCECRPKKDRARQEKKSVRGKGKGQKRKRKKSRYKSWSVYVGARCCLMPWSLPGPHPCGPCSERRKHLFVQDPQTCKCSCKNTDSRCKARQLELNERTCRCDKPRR

Usually Kd stands for the constant that tells how readily two partners part at equilibrium. Low values mean higher affinity, high ones lower affinity. As usually defined, the koff is the first-order rate constant of dissociation. Low readings indicate slow dissociation, high ones fast dissociation. For orientation: kon means the rate constant with which the complex forms. A low value points to slower complex formation.

The target of assay [1] is T1, human VEGF (hVEGF) (human, UniProt P15692 181-395).
T1 construct: also called VEGF-A
The experiment in a line: SPR.

Assay [2] concerns the target T1, human VEGF (hVEGF). In words: SPR. This is another data set of the same source. For orientation: Surface plasmon resonance follows binding to a sensor surface in real time, without labels.
Assay [3] addresses T1, human VEGF (hVEGF). In words: SPR single-cycle.
Assay [4] addresses T1, human VEGF (hVEGF). In words: SPR. The source holds these as a separate data set.
Assay [5] has as its target VEGF (as used in the HUVEC migration assay) (Homo sapiens (Human), UniProt P15692 181-395). The experiment in a line: cell-based or functional assay.
Assay [6] concerns the target T1, human VEGF (hVEGF). In words: SPR single-cycle. This is another data set of the same source.
Assay [7] deals with T1, human VEGF (hVEGF). In words: SPR multiple-cycle.
The target in assay [8] is T1, human VEGF (hVEGF). The experiment in a line: BIACORE SPR on immobilised hVEGF; label beside the mutation on the structure of the VEGF-bound G6 Fab (PDB 2FJG).

Where a chain is given by its changes, count along the chain named.

B1: G6.31 WT (Fab, V domains shown)
VH: EVQLVESGGGLVQPGGSLRLSCAASGFTISDYWIHWVRQAPGKGLEWVAGITPAGGYTYYADSVKGRFTISADTSKNTAYLQMNSLRAEDTAVYYCARFVFFLPYAMDYWGQGTLVTVSS
VL: DIQMTQSPSSLSASVGDRVTITCRASQDVSTAVAWYQQKPGKAPKLLIYSASFLYSGVPSRFSGSGSGTDFTLTISSLQPEDFATYYCQQGYGNPFTFGQGTKVEIK
notes: also called wild-type G6.31
Consider B1, for which the Kd is 0.525 nM with human VEGF (hVEGF) [1]; 0.599 nM with human VEGF (hVEGF) [2]; 1.7 nM with human VEGF (hVEGF) [3]; 0.525 nM in the assay with human VEGF (hVEGF) [4]; 1.54 nM in the assay with human VEGF (hVEGF) [6]; 0.525 nM with human VEGF (hVEGF) [7]. The koff with human VEGF (hVEGF) [1] was 0.000395 s⁻¹; in the assay with human VEGF (hVEGF) [2] it was 0.000599 s⁻¹; in the assay with human VEGF (hVEGF) [3], 0.000513 s⁻¹; with human VEGF (hVEGF) [4] it was 0.000395 s⁻¹; with human VEGF (hVEGF) [6], 0.000686 s⁻¹; in the assay with human VEGF (hVEGF) [7] it was 0.000395 s⁻¹. Besides, the kon with human VEGF (hVEGF) [1] was determined as 754000 M⁻¹ s⁻¹; in the assay with human VEGF (hVEGF) [2], 999000 M⁻¹ s⁻¹; with human VEGF (hVEGF) [3], 301000 M⁻¹ s⁻¹; in the assay with human VEGF (hVEGF) [4] it was 754000 M⁻¹ s⁻¹; in the assay with human VEGF (hVEGF) [6], 445000 M⁻¹ s⁻¹; with human VEGF (hVEGF) [7] it was 754000 M⁻¹ s⁻¹. Further, in assay [5], the “IC50 relative to G6.31, VEGF-induced HUVEC migration” value stood at 1 fold.

B2: G6.31 HC-S7L (Fab, name in Kabat numbering, V domains shown)
VH: B1 VH with S7L
VL: B1 VL
notes: Fab
Regarding B2, in the assay with human VEGF (hVEGF) [6], the “Fold difference (relative to G6.31)” value is 2 fold, the Kd was 0.77 nM, the dissociation rate constant (koff) is 0.000568 s⁻¹ and the kon amounted to 736000 M⁻¹ s⁻¹. Moreover, in the assay with human VEGF (hVEGF) [8], the “fold change in binding affinity (Kd) compared to G6.31” value is 2 x.

B3: G6.31 HC-V2R (Fab, name in Kabat numbering, V domains shown)
VH: B1 VH with V2R
VL: B1 VL
notes: Fab
Take B3: in the assay with human VEGF (hVEGF) [6], the “Fold difference (relative to G6.31)” value turned out to be 2.1 fold; the affinity, expressed as Kd, was 0.73 nM; the koff is 0.000341 s⁻¹; the on-rate constant (kon) was determined as 464000 M⁻¹ s⁻¹. Further, the “fold change in binding affinity (Kd) compared to G6.31” value with human VEGF (hVEGF) [8] stood at 2 x.
